Source: PubChem BioAssay
uPA surface inh: blocks generation of uPA at the cell surface. Potency, µM (top dose mostly 38.3 µM), hits mostly inhibitors. cell surface uPA generation assay, qHTS. 330,000 compounds, 0.31% hits; active = well fitted inhibition curve with a large enough effect; inconclusive = small, poorly fitted or top-dose-only effect; inactive = no such curve, though single readings can be large or run the other way; tested in mouse RAW 264.7 cells; note: nearly all actives have a fitted effect of over 55% in size
DT40 TDP1 no CPT: qHTS for Inhibitors of human tyrosyl-DNA phosphodiesterase 1 (TDP1): qHTS in cells in absence of CPT. Potency, µM (doses to about 46.2 µM), most hits filed as inhibitors. DT40 Tdp1-/- hTDP1 cells, no CPT, ATP luminescence, 48 h. 420,000 compounds, 15% hits; note: nearly all actives have a fitted effect of over 55% in size
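Readout: luminescence from CellTiter-Glo after 30 min in the dark at RT. Cells: DT40 Tdp1-/- with stable hTDP1, 400/well. Exposure: compounds alone, ≥48 hr, 37 °C.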
TDP1 cell CPT: growth inhibition of DT40 Tdp1-/-;hTDP1 cells with camptothecin (screen for TDP1 inhibitors); chicken DT40 Tdp1-/-;hTDP1 cells + 20 nM CPT, ATP luminescence, 48 h; Potency, µM (doses to about 46.2 µM), most hits filed as inhibitors; 420,000 compounds, 12% hits; AID 686979; note: nearly all actives have a fitted effect of over 55% in size
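Chicken DT40 Tdp1-/- cells complemented with human TDP1, 400 cells/well, exposed to compounds plus 20 nM camptothecin for at least 48 h at 37 C; viability read as ATP content by CellTiter-Glo luminescence.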
TDP1 block: blocks human tyrosyl-DNA phosphodiesterase 1; Q9NUW8; recombinant TDP1, AlphaScreen DNA substrate cleavage; Potency, µM (highest dose often 130 µM), most hits filed as inhibitors; 350,000 compounds, 0.28% hits; note: nearly all actives have a fitted effect of over 40% in size
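AlphaScreen read-out: signal falls as enzyme removes the 3' tyrosine-FITC from a 5'-biotinylated DNA oligo (15 nM, 5 min, RT). Enzyme was E. coli-made recombinant Tdp1 at 1 nM, exposed to compound for 15 min beforehand; beads 10 ug/ml, 10 min.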
miR-21 reporter: raises the signal of a miR-21 reporter; Potency, µM (doses to about 38.3 µM); HeLa miR-21 FLuc reporter, luciferase, 48 h; AID 2288; 340,000 tested, under 10 active; active = well fitted rising curve with a large enough effect; inconclusive = small, poorly fitted or top-dose-only effect; inactive = no such curve, though single readings can be large or run the other way;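 further: miR-21 action dims this reporter so a rising signal means less miR-21 action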
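HeLa miR-21-FLuc reporter line, endogenous miR-21; 2000 cells/well in DMEM/10% FBS; compound titration up to ~40uM final, 48 h, 37 degree Celsius; luciferase detection reagent, 15 min lysis, CCD luminescence.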
Hits are given with their value; . = inactive; ? = inconclusive; / = no result given. A selection: hits, their analogues and other compounds. The true share with any hit is near 16%. Unless noted, calls come from the whole dose curve; as a rule, active = well fitted curve in the direction sought with a large enough effect; inconclusive = small, poorly fitted or top-dose-only effect, or another doubt; inactive = no such curve, though single readings can be large; an effect the other way counts as inactive or inconclusive.

SMILES | uPA surface inh | DT40 TDP1 no CPT | TDP1 cell CPT | TDP1 block | miR-21 reporter
O=C(CCC1CCCN(C(=O)c2ccc3cc[nH]c3c2)C1)N1CCN(c2ccccn2)CC1 (centres undefined) | . | ? | 16µM | . | .
O=C(CCC1CCCN(C(=O)CCCc2ccccc2)C1)N1CCN(c2ccccn2)CC1 (centres undefined) | . | ? | 21µM | / | .
CCc1ccc(CN2CCCC(CCC(=O)N3CCN(c4ccccn4)CC3)C2)o1 (centres undefined) | . | 16µM | ? | / | .
CNC[C@H]1OCc2ccccc2-c2ccccc2C(=O)N([C@H](C)CO)C[C@H]1C | / | . | . | / | /
CCC(=O)NC(=S)Nc1ccc(S(=O)(=O)NC2CCCCC2)cc1 | . | ? | ? | . | .
O=C(NC1CCCCC1)N1CCNCC1 | . | . | . | / | .
C1CCCCCC(NCCN2CCNCC2)CCCCC1 | . | 2.6µM | 3.7µM | / | .
CC(=O)c1c(C)[nH]c(-c2ccccc2)nc1=S | . | ? | . | . | .
CC(=O)c1c(NC(=O)c2ccccc2)[nH]c(-c2ccccc2)nc1=S | . | 23µM | ? | . | .
NNC(=O)c1nc(-c2ccccc2)n2c1CCCCC2 | . | . | . | . | .
O=C(N/N=C/c1ccncc1)c1nc(-c2ccccc2)n2c1CCCCC2 | . | 7.3µM | 7.3µM | . | .
C=CCn1c(=O)/c(=C/c2ccc(Cl)cc2)s/c1=C(\C#N)c1nnc2n1CCCCC2 | . | 6.5µM | 21µM | / | /
O=C(Cc1cccc2ccccc12)N/N=C/c1ccc2cccc(O)c2n1 | . | 15µM | ? | . | .
C=CCSc1nc2sc3c(c2c(=O)n1CC)CCC3 | . | ? | . | ? | .
CC(C)CC1Nc2ncnc(N3CCCCC3)c2N(Cc2ccccc2)C1=O (centres undefined) | . | 18µM | 26µM | / | /
CC(C)CC1Nc2ncnc(N3CCN(c4ccccc4)CC3)c2N(Cc2ccccc2)C1=O (centres undefined) | ? | 15µM | 16µM | / | /
Cc1ccc(CN2C(=O)C(CC(C)C)Nc3ncnc(N4CCOCC4)c32)cc1 (centres undefined) | . | . | . | . | /
COc1ccc(CN2C(=O)C(CC(C)C)Nc3ncnc(N4CCOCC4)c32)cc1 (centres undefined) | . | . | . | . | /
CC(C)CC1Nc2ncnc(N3CCN(c4ccccn4)CC3)c2N(Cc2ccc(Cl)cc2)C1=O (centres undefined) | . | 23µM | ? | . | /
CC(C)CC1Nc2ncnc(N3CCN(c4ccccc4)CC3)c2N(Cc2ccc(Br)cc2)C1=O (centres undefined) | . | 18µM | 16µM | / | /
COc1ccc(CN2C(=O)C(CC(C)C)Nc3ncnc(N4CCCCC4)c32)cc1 (centres undefined) | . | ? | ? | . | /
O=[N+]([O-])c1ccccc1SNc1ccc(Br)cn1 | . | . | . | . | .
O=C(COC(=O)Cc1n[nH]c(=O)c2ccccc12)Nc1c(Br)cc([N+](=O)[O-])cc1Br | . | . | . | / | /
CN1C(=O)c2cccc3c(S(=O)(=O)N4CCCC4C(=O)O)ccc1c23 (centres undefined) | . | . | . | . | .
COc1ccc(CN2C(=O)C(CC(C)C)Nc3ncnc(N4CCN(c5ccccc5)CC4)c32)cc1 (centres undefined) | ? | ? | 18µM | . | /
SMILES | uPA surface inh | DT40 TDP1 no CPT | TDP1 cell CPT | TDP1 block | miR-21 reporter
COc1cccc2cc(-c3nc(-c4ccccc4F)no3)c(=O)oc12 | / | . | . | . | .
Cc1ccc(NC(=O)C2CCN(S(=O)(=O)c3ccccc3)CC2)cc1 | . | . | . | . | .
Cc1ccc(S(=O)c2ccc(NC(=O)C3CC3)cc2C#N)cc1 (centres undefined) | . | 23µM | 18µM | . | .
CC(C)Oc1ccc(CN2CCC2(C)C(=O)Nc2cccc3cccnc23)cc1 (centres undefined) | / | ? | 18µM | / | /
COc1ccc(OC)c(NC(=O)C2(C)CCN2C(=O)C2(c3ccccc3)CCCC2)c1 (centres undefined) | / | 23µM | ? | / | /
COc1ccc(OC)c(NC(=O)C2(C)CCN2CCOc2ccccc2)c1 (centres undefined) | / | ? | 23µM | / | /
CCCC(=O)N1CCCC1(C)C(=O)Nc1cc(OC)ccc1OC (centres undefined) | / | . | . | / | /
CC1(C(=O)Nc2cccc3cccnc23)CCN1Cc1ccccc1OC(F)F (centres undefined) | / | 15µM | ? | / | /
CCC(=O)OCC(=O)C1(OC(=O)CC)[C@H](C)C[C@H]2[C@H]3[C@H]([C@@H](O)C[C@@]21C)[C@@]1(C)C=CC(=O)C=C1C[C@H]3Cl (some centres undefined) | . | . | . | / | /
Cc1ccc(OCCN2CCC2(C)C(=O)Nc2ccc3c(c2)OCCO3)cc1 (centres undefined) | / | 18µM | . | / | /
CC1(C(=O)Nc2cccc3cccnc23)CCN1Cc1ccc(-c2ccccc2)o1 (centres undefined) | / | 18µM | 23µM | / | /
Cc1ccc(OCCC(=O)Nc2ccc3c(c2)OCCCO3)cc1 | . | . | . | . | /
CCC(=O)Nc1cccc2cccnc12 | . | . | . | . | .
COc1ccc(OC)c(NC(=O)C2(C)CCN2Cc2cccc(OC)c2OC)c1 (centres undefined) | / | 15µM | ? | / | /
COc1cccc(CN2CCC2(C)C(=O)Nc2cccc3cccnc23)c1OC (centres undefined) | / | 18µM | 16µM | / | /
COc1ccc(-c2ccccc2)cc1NC(=O)C1(C)CCN1C(=O)C(C)C (centres undefined) | / | . | ? | / | /
Cc1ccc(-c2nnc(NC(=O)c3c(F)cccc3Cl)s2)cc1 | . | . | . | / | .
Cc1cc(C)cc(NC(=O)N2CCC(N3CCN(Cc4ccccc4)C(=O)C3=O)CC2)c1 | / | . | . | . | .
Cc1ccc(NS(=O)(=O)c2ccc(NC(=O)c3ccc(Br)o3)cc2)c(C)c1 | . | 26µM | ? | . | .
Cc1ccc(NS(=O)(=O)c2cccc(C(=O)Nc3cccnc3)c2)c(C)c1 | . | 15µM | ? | . | /
Cc1ccc(NS(=O)(=O)c2cccc(C(=O)NC3CC3)c2)c(C)c1 | . | . | . | . | /
Cc1cc(C)cc(NS(=O)(=O)c2ccc(NC(=S)NC(=O)c3ccc(Br)o3)cc2)c1 | . | 16µM | 16µM | . | .
NS(=O)(=O)c1ccc(NC(=S)NC(=O)c2ccc(Br)o2)cc1 | . | ? | ? | . | .
Cc1cc(NC(=O)c2ccc(Br)o2)ccc1NC(=O)c1ccco1 | . | 16µM | 15µM | . | .
Cc1ccc(NS(=O)(=O)c2ccc(NC(=O)c3ccccc3C(=O)O)cc2)c(C)c1 | . | . | . | / | /
CCCNC(=O)CN1C(=O)COc2ccc(S(=O)(=O)N3CCC(C)CC3)cc21 | / | / | / | . | .
